# Assay results as given in PubChem BioAssay AID2557 (NMMLSC, 2010).
# Amino acid sequences for entries named in this document (tags omitted).
# UniProt P13612, whole entry, looked up: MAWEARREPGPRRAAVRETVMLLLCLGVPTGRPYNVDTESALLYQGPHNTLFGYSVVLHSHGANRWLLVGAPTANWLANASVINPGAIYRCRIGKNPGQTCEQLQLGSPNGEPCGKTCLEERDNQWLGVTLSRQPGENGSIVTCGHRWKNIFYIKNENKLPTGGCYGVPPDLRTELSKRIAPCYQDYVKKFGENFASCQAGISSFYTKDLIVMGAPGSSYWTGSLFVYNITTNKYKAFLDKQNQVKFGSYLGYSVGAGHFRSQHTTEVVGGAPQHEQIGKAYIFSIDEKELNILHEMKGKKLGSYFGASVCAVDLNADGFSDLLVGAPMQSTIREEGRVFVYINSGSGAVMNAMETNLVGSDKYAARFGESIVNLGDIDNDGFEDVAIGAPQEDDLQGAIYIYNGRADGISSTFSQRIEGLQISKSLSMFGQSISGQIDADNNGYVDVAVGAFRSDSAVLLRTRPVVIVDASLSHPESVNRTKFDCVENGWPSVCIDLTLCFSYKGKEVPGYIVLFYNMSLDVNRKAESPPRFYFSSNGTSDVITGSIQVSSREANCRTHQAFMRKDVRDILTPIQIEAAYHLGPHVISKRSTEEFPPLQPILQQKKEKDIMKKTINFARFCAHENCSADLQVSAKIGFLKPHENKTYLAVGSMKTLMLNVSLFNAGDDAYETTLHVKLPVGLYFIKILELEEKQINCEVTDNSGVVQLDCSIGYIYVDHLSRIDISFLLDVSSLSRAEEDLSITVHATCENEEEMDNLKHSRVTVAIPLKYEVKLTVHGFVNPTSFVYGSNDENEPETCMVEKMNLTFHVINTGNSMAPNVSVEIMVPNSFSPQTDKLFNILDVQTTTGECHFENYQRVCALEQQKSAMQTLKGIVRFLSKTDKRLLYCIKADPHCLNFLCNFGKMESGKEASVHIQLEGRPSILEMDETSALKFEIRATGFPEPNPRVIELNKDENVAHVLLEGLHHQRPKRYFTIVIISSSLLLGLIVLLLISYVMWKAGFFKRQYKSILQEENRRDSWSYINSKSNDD
# This is a selection; strong and weak results do not stand in their true shares. Active and inactive are the calls of the source. No stated cut-off is given here; in the data, active means inhibition above about 50%; inactive means the rest.
# Biological target: Integrin alpha-4 (Homo sapiens) (UniProt P13612)
# Experiment: inhibition in human VLA-4 binding assay, primary screen, VLA-4 allosteric modulator project, MLPCN library, flow cytometry, VLA-4 expressing cells (AID 2557)
# Details: ligand binding flow cytometry, stronger effect = higher value, about 7 µM as worked out from the volumes in the protocol
row,SMILES,inhibition
1,CSc1ccccc1C(=O)NCC1(N2CCCCC2)CCCCC1,inactive: 4.89%
2,COc1ccc(C(=O)NCC2(N3CCCCC3)CCCCC2)cc1,inactive: 3.35%
3,COc1ccc(C(=O)NCC2(N3CCCCC3)CCCCC2)c(OC)c1OC,inactive: 7.96%
4,CC(C)(C)OC(=O)N1CCC(N(C(=O)c2ccccc2)c2ccc(F)cc2)CC1,inactive: 8.5%
5,O=C(NCC1(N2CCCCC2)CCCCC1)c1ccc(=O)[nH]c1,inactive: -13.4%
6,O=C(NCC1(N2CCCCC2)CCCCC1)c1cccs1,inactive: 2.38%
7,O=C(OC1CN2CCC1CC2)C1c2ccccc2Oc2ccccc21 (stereo unspecified),inactive: 15.2%
8,O=C(NCC1(N2CCCCC2)CCCCC1)c1ccc(Cl)s1,inactive: 7.89%
9,N#CC1(Nc2ccccc2)CCN(Cc2ccccc2)CC1,inactive: 7.01%
10,COc1ccc(Cl)cc1C(=O)NCC1(N2CCOCC2)CCCCC1,inactive: -7.77%
11,CCOC(=O)N1CCC(Nc2ccc(OC)cc2)CC1,inactive: 18.7%
12,O=C(NCC1(N2CCCCC2)CCCCC1)c1ccc(Cl)nc1,inactive: -4.49%
13,Cc1cc(C)cc(N(C(=O)c2ccccc2)C2CCN(C(=O)OC(C)(C)C)CC2)c1,inactive: -8.46%
14,O=C(NCC1(N2CCOCC2)CCCCC1)c1cc2ccccc2o1,inactive: -5.34%
15,O=C(NCC1(N2CCCCC2)CCCCC1)c1ccc(F)cc1,inactive: 31.7%
16,CCOC(=O)N1CCC(Nc2ccc(F)cc2)CC1,inactive: 3.27%
17,COc1ccc(NC2CCN(CCc3ccccc3)CC2)c(OC)c1,inactive: 1.43%
18,CCOc1ccc(C)cc1CN(CCCl)CCCl,inactive: 3.59%
19,COc1cc(C(=O)NCC2(N(C)C)CCCCC2)ccc1OC(F)F,inactive: -14.2%
20,CCOC(=O)N1CCC(Nc2cccc(C)c2)CC1,inactive: 6.03%
21,Cc1ccc(OCC(C)C)c(CN(CCCl)CCCl)c1,inactive: 8.16%
22,CCN1CCC(Nc2ccc(Cl)cc2)CC1,inactive: -4.15%

row,SMILES,inhibition
1,N#CC1(Nc2ccccc2)CCN(CCc2ccccc2)CC1,inactive: 11.1%
2,O=C(NCC1(N2CCCCC2)CCCCC1)c1cccc([N+](=O)[O-])c1,inactive: 3.05%
3,O=C(NCC1(N2CCCCC2)CCCCC1)c1ccc(OC(F)F)cc1,inactive: 9.28%
4,O=C(NCC1(N2CCOCC2)CCCCC1)c1cc(=O)[nH]c2ccccc12,inactive: 11.1%
5,COc1cc(C(=O)NCC2(N3CCCCC3)CCCCC2)ccc1OC(F)F,inactive: 1.02%
6,COc1ccc(NC2CCN(C(=O)OC(C)(C)C)CC2)cc1,inactive: -15.2%
7,CN1CCN(CCOC(=O)C(O)(c2ccccc2)c2ccccc2)CC1,inactive: -3.97%
8,O=C(NCC1(N2CCCCC2)CCCCC1)c1cccc(C(F)(F)F)c1,inactive: 5.43%
9,COc1cc(OC)c(C(=O)NCC2(N(C)C)CCCCC2)cc1OC,inactive: 36.4%
10,O=C(NCC1(N2CCOCC2)CCCCC1)c1cc(F)c(F)cc1Cl,inactive: 4.64%
11,CC(C)c1ccc(NC2CCN(C(=O)OC(C)(C)C)CC2)cc1,inactive: -6.16%
12,COc1ccc(CN(CCCl)CCCl)cc1Cl,inactive: 10.3%
13,CN(C)c1cccc(C(=O)NCC2(N3CCCCC3)CCCCC2)c1,inactive: 0.33%
14,CCCOc1ccc(C(=O)NCC2(N(C)C)CCCCC2)cc1OC,inactive: -12.7%
15,O=C(NCC1(N2CCCCC2)CCCCC1)c1cncc(Br)c1,inactive: 4.72%
16,CN1CCC(Nc2cccc(F)c2)CC1,inactive: 11.2%
17,COc1ccc(C(=O)NCC2(N3CCOCC3)CCCCC2)cc1OC,inactive: -4.52%
18,COc1cc(C(=O)NCC2(N3CCOCC3)CCCCC2)cc(OC)c1C,inactive: -2.97%
19,O=C(NCC1(N2CCOCC2)CCCCC1)c1cc(Br)ccc1Cl,inactive: -3.06%
20,O=C(OC1CN2CCC1CC2)C1c2ccccc2C=Cc2ccccc21 (stereo unspecified),inactive: 11.1%
21,CCc1cc(C(=O)NCC2(N3CCCCC3)CCCCC2)sc1C,inactive: 16.5%
22,CCOC(=O)N1CCC(Nc2ccc(C)cc2)CC1,inactive: -8.36%

row,SMILES,inhibition
1,N/C(=N\O)c1c(N)no[n+]1[O-],inactive: 5.49%
2,N#Cc1ccc(C(=O)NCC2(N3CCCCC3)CCCCC2)cc1,inactive: -1.32%
3,CC(C)(C)OC(=O)N1CCC(N(C(=O)c2ccccc2)c2ccc(Cl)cc2)CC1,inactive: 14.6%
4,CN(C)C1(CNC(=O)c2cccc(C#N)c2)CCCCC1,inactive: -1.33%
5,c1ccc(CN2CCC(Nc3ccccc3)CC2)cc1,inactive: -8.23%
6,CCCN1CCC(Nc2cc(OC)cc(OC)c2)CC1,inactive: -14.7%
7,Cc1ccc(C(=O)NCC2(N3CCCCC3)CCCCC2)o1,inactive: -2.15%
8,Fc1ccccc1NC1CCN(Cc2ccccc2)CC1,inactive: -81.3%
9,COc1cc(OC)cc(C(=O)NCC2(N3CCCCC3)CCCCC2)c1,inactive: 1.52%
10,O=C(NCC1(N2CCCCC2)CCCCC1)c1ccco1,inactive: 37.5%
11,CN(C)c1ccc(C(=O)NCC2(N3CCCCC3)CCCCC2)cc1,inactive: 3.32%
12,CCN1CCC(Nc2cccc(F)c2)CC1,inactive: 0%
13,CC(C)(C)OC(=O)N1CCC(Nc2ccccc2)CC1,inactive: -4.63%
14,O=C(O)C1(Nc2ccccc2)CCN(Cc2ccccc2)CC1,inactive: 4.58%
15,CCCOc1ccc(C(=O)NCC2(N(C)C)CCCCC2)cc1,inactive: 18.6%
16,CCOc1ncccc1C(=O)NCC1(N2CCOCC2)CCCCC1,inactive: -0.43%
17,CN1CCC(Nc2ccc(F)c(Cl)c2)CC1,inactive: -6.96%
18,CN1CCC(Nc2ccc(Cl)cc2)CC1,inactive: -3.45%
19,CCCOc1ccc(C)cc1CN(CCCl)CCCl,inactive: 10.1%
20,COc1cccc(C(=O)N(c2cc(C)cc(C)c2)C2CCN(C(=O)OC(C)(C)C)CC2)c1,inactive: -2.11%
21,COc1cc(OC)cc(C(=O)NCC2(N3CCOCC3)CCCCC2)c1,inactive: -2.4%
22,CCC(CO)(C(=O)OC1CN2CCC1CC2)c1ccccc1 (stereo unspecified),inactive: -1.28%
